Values of other authors in patent publication US20190335749A1, “Adjustable Release Pesticide Tablet Formulations” (priority 2018, published 2019).

Settings: cited from earlier work

In the case of `O=[N+]([O-])c1ccc([O-])cc1C(F)(F)F.[K+]` [TFM phenoxide salt], the solubility in water is given as “significantly more soluble”.
